Like-named read-outs stand apart in the source and are kept apart here.
Columns and labels:
[1] = biological target: human type 5 17β-hydroxysteroid dehydrogenase (Homo sapiens, UniProt P42330); assay: Inhibition of human type 5 17β-HSD activity in transfected 293 cells; type: cell-based
[2] = biological target: human type 2 17β-hydroxysteroid dehydrogenase (Homo sapiens, UniProt P37059); assay: Enzymatic assay for type 2 17β-HSD; conditions: at 3.10^-8M
[3] = In vivo assay of oral bioavailability (plasma AUC 0-7 h by LCMS/MS); conditions: AUC 0-7h
[4] = test system: Shionogi mouse mammary carcinoma cells; assay: Androgenic activity: stimulation of proliferation of Shionogi cells
[5] = test system: Shionogi mouse mammary carcinoma cells; assay: Antiandrogenic activity: inhibition of DHT-induced proliferation of Shionogi cells; type: cell-based
[6] = biological target: human type 1 17β-hydroxysteroid dehydrogenase (Homo sapiens, UniProt P14061); assay: Enzymatic assay for type 1 17β-HSD; conditions: value in square brackets
ZR-75-1 cells [7] = assay: Estrogenic activity: stimulation of proliferation of ZR-75-1 cells; type: cell-based, human
ZR-75-1 cells [8] = assay: Antiestrogenic activity: inhibition of E2-induced proliferation of ZR-75-1 cells; set-up: ZR-75-1 Activity, E2 / ZR-75-1 Activity E2 E^−6: unit not given here; conditions: E2, E^−8
[9] = read-out: Inhibition Type V 17β-HSD IC50
[10] = read-out: Antiandrogenic Activity Shionogi, DHT [IC50], DHT
[11] = read-out: Inhibition Type V 17B-HSD IC50
[12] = read-out: Antiandrogenic Activity Shionogi DHT [IC50 (nM)], with DHT, value in square brackets on second line

Sequences of proteins named here, by UniProt entry; tags and fusion partners are left off.
UniProt P42330, whole entry: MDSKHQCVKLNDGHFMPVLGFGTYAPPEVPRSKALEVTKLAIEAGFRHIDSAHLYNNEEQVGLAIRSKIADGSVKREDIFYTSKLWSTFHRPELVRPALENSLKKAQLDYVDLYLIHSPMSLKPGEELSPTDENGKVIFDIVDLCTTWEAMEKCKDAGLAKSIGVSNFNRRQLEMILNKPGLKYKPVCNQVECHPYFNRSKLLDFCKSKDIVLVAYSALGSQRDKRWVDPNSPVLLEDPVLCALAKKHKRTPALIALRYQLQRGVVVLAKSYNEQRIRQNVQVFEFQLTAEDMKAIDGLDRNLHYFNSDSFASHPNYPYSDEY
UniProt P37059, whole entry: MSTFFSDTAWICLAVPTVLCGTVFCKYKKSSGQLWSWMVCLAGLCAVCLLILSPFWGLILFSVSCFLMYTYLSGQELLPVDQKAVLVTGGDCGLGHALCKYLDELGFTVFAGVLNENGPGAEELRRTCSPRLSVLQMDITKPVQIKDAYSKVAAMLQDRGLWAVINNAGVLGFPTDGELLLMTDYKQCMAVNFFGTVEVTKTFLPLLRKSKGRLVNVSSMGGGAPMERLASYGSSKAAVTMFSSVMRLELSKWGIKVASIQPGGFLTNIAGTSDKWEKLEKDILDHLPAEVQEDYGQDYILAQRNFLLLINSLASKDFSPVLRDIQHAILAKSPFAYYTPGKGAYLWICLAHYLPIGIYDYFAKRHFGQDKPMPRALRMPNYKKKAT
UniProt P14061, whole entry: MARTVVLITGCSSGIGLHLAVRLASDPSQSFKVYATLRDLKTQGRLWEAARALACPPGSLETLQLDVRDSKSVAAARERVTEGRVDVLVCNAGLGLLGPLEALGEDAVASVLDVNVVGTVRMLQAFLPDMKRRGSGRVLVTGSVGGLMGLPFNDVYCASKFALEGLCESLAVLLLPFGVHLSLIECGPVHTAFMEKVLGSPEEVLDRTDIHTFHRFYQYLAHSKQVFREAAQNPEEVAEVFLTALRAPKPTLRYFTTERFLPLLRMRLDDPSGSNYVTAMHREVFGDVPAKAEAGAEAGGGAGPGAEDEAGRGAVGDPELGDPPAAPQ

SMILES	IC50 [1, 9] [nM]	Inhibition Type 2 17β-HSD Activity [% Inh.] [2]	Oral Bioavailability AUC 0-7h [3] [ng·h/mL]	Androgenic Activity Shionogi, Basal ([4]; E^−6)	Androgenic Activity Shionogi, Basal ([4]; E^−7)	Antiandrogenic Activity Shionogi, DHT ([5]; DHT, E^−6)	Antiandrogenic Activity Shionogi, DHT ([5]; DHT, E^−7)	IC50 [5, 10] [nM]	IC50 [1, 11] [nM]	Inhibition Type 1 17B-HSD Activity [% Inh. at 3 · 10^−6 M] [6]	Androgenic Activity Shionogi Basal E^−6 ([4]; E^−6)	Androgenic Activity Shionogi Basal E^−7 ([4]; E^−7)	IC50 [5, 12] [nM]	Antiandrogenic Activity Shionogi DHT E^−6 ([5]; with DHT, E^−6)	Antiandrogenic Activity Shionogi DHT E^−7 ([5]; with DHT, E^−7)	ZR-75-1 Activity, Basal (ZR-75-1 cells [7]; E^−6)	ZR-75-1 Activity, Basal (ZR-75-1 cells [7]; E^−8)	ZR-75-1 Activity, E2 (ZR-75-1 cells [8])
CCN(C)C(=O)[C@@]1(OC(=O)CCCCl)CCC2C3C=C(C)C4=CC(=O)CC[C@]4(C)C3CC[C@@]21C (stereo partly drawn)	5	[45] %	130 ± 35	−12	−6	−104	−89	15.1	–	–	–	–	–	–	–	–	–	–
CCCCCC(=O)O[C@]1(C)C(=O)CCC2C3C=C(C)C4=CC(=O)CC[C@]4(C)C3CC[C@@]21C (stereo partly drawn)	–	–	–	–	–	–	–	–	3	[66] %	−31	−29	30	−109	−80	–	–	–
CC1=CC2C(CC[C@@]3(C)C2CCC(=O)[C@@]3(C)OC(=O)CCCCCCl)[C@@]2(C)CCC(=O)C=C12 (stereo partly drawn)	–	–	–	–	–	–	–	–	6.4	[13] %	−29	−12	–	−114	−84	–	–	–
CC1=CC2C(CC[C@@]3(C)C2CCC(=O)[C@@]3(C)OC(=O)CCCCCF)[C@@]2(C)CCC(=O)C=C12 (stereo partly drawn)	–	–	–	–	–	–	–	–	3.4	[21] %	−37	−28	–	−109	−88	–	–	–
CC(=O)[C@@]1(OC(=O)CCCCBr)CCC2C3C=C(C)C4=CC(=O)CC[C@]4(C)C3CC[C@@]21C (stereo partly drawn)	4.6	[28] %	4.1 ± 1.4	−54	−17	−121	−70	33	–	–	–	–	–	–	–	196	197	0
CC1=CC2C(CC[C@@]3(C)C2CCC(=O)[C@@]3(C)OC(=O)CCCCCBr)[C@@]2(C)CCC(=O)C=C12 (stereo partly drawn)	–	–	–	–	–	–	–	–	4	[63] %	−25	−25	40	−108	−48	–	–	–
CCC(=O)O[C@]1(C(C)=O)CCC2C3C=C(C)C4=CC(=O)C=C[C@]4(C)C3CC[C@@]21C (stereo partly drawn)	3	[59] %	18 ± 6.6	0	0	−111	−94	23	–	–	–	–	–	–	–	–	–	–
CCC(=O)O[C@]1(C)C(=O)CCC2C3C=C(C)C4=CC(=O)CC[C@]4(C)C3CC[C@@]21C (stereo partly drawn)	–	–	–	–	–	–	–	–	11	[38] %	−21	−25	15	−105	−88	–	–	–
CC(=O)[C@@]1(OC(=O)CCCCCl)CC[C@H]2[C@@H]3C=C(C)C4=CC(=O)CC[C@]4(C)[C@H]3CC[C@@]21C	3	[13] %	10 ± 2.5	−15	−24	−146	−123	9.3	–	–	–	–	–	–	–	−10	0	−62
CCCCC(=O)O[C@]1(C)C(=O)CC[C@H]2[C@@H]3C=C(C)C4=CC(=O)CC[C@]4(C)[C@H]3CC[C@@]21C	–	–	–	–	–	–	–	–	8.9	[70] %	−14	−28	19	−104	−92	–	–	–
CC1=CC2C(CC[C@@]3(C)C2CCC(=O)[C@@]3(C)OC(=O)CCCCF)[C@@]2(C)CCC(=O)C=C12 (stereo partly drawn)	–	–	–	–	–	–	–	–	6.5	[48] %	−32	−30	–	−109	−98	–	–	–
CCN(C)C(=O)[C@@]1(OC(=O)C(C)C)CCC2C3C=C(C)C4=CC(=O)CC[C@]4(C)C3CC[C@@]21C (stereo partly drawn)	8	[65] %	82 ± 15	−30	−9	−66	1	–	–	–	–	–	–	–	–	–	–	–
CCCC(=O)O[C@]1(C(=O)N(C)C)CCC2C3C=C(C)C4=CC(=O)CC[C@]4(C)C3CC[C@@]21C (stereo partly drawn)	5.8	[80] %	58 ± 10	−45	−25	−113	−86	101	–	–	–	–	–	–	–	–	–	–
CC1=CC2C(CC[C@@]3(C)C2CCC(=O)[C@@]3(C)OC(=O)CCCCCl)[C@@]2(C)CCC(=O)C=C12 (stereo partly drawn)	–	–	–	–	–	–	–	–	2.6	[24] %	−36	−29	–	−110	−99	–	–	–
C[C@H]1CC(=O)C=C2C=CC3C(CC[C@]4(C)C(=O)C5(CCCC5)CC34)[C@]21C (stereo partly drawn)	–	–	–	–	–	–	–	–	35	[32] %	−24	0	–	−34	0	–	–	–
CCN(C)C(=O)[C@@]1(OC(C)=O)CCC2C3C=C(C)C4=CC(=O)CC[C@]4(C)C3CC[C@@]21C (stereo partly drawn)	17	[28] %	252 ± 61	−23	−15	−71	7	–	–	–	–	–	–	–	–	–	–	–
C[C@]12CCC3C4CCC(=O)C=C4C=CC3C1CC1(CCCCC1)C2=O (stereo partly drawn)	–	–	–	–	–	–	–	–	36	[32] %	−20	4	–	0	0	–	–	–
CC(=O)[C@@]1(OC(=O)CCCCCCl)CCC2C3C=C(C)C4=CC(=O)CC[C@]4(C)C3CC[C@@]21C (stereo partly drawn)	5.3	[14] %	4 ± 1.3	−30	−6	−111	−82	61	–	–	–	–	–	–	–	182	98	0
